The values that follow come from ChEMBL document CHEMBL4308836, “Inhibitors of Mutant Isocitrate Dehydrogenases 1 and 2 (mIDH1/2): An Update and Perspective” (J Med Chem, 2018).

The chains behind the UniProt entries cited, without tags or fusion partners. Residues count along the entry.
UniProt O75874, 2-414 R132G limits assumed: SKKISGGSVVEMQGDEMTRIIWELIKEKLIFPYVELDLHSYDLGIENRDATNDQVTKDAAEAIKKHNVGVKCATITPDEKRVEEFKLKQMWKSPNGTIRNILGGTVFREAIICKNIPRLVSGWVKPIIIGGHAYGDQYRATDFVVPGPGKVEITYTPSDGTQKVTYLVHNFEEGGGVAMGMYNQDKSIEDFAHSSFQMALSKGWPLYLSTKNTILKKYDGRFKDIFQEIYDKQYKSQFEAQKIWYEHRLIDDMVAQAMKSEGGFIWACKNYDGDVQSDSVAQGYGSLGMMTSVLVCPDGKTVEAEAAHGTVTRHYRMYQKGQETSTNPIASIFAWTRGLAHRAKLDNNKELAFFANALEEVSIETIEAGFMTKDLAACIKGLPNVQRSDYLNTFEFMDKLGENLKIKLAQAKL
UniProt O75874, 2-414 R132C limits assumed: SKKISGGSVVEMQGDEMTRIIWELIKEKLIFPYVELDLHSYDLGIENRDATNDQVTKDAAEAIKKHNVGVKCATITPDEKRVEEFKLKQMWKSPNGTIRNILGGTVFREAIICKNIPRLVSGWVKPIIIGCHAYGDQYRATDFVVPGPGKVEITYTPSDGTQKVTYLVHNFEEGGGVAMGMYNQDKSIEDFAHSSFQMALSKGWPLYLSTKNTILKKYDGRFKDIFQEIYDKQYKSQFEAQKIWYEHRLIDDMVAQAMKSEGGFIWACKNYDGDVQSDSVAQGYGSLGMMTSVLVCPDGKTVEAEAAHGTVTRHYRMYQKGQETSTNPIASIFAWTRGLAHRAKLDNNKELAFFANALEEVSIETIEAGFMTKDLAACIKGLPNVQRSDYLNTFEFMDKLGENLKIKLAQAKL
UniProt O75874, 2-414 R132H limits assumed: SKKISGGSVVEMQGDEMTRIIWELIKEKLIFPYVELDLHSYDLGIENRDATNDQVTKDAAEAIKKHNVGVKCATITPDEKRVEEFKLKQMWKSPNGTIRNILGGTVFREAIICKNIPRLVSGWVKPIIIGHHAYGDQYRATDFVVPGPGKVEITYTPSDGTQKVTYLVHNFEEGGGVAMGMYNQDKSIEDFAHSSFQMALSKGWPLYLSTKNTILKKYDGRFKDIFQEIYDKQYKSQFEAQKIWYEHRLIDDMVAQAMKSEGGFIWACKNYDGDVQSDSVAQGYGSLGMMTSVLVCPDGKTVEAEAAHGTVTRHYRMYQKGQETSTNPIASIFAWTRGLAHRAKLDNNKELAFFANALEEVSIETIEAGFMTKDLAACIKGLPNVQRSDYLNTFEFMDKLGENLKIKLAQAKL

Test [1] has as its target Isocitrate dehydrogenase [NADP] cytoplasmic (Homo sapiens, UniProt O75874, R132G).
For test [2], the target named is Isocitrate dehydrogenase [NADP] cytoplasmic (Homo sapiens, UniProt O75874, R132C).
In test [3] the target is Isocitrate dehydrogenase [NADP] cytoplasmic (Homo sapiens, UniProt O75874, R132H).

Regarding `C[C@H](O)c1cccc(NC(=O)c2nn(Cc3ccc(F)cc3)c3c2CN(C(=O)c2ccc[nH]2)C[C@H]3C)c1`, the figures for the IC50 in test [1], in test [2] and in test [3] were 17 nM, 9 nM and 15 nM, respectively. In addition, the EC50 (usually the midpoint of the concentration-response curve) in test [2] was found to be 85 nM.
